Test system: snap dragon (Antirrhinum majus)
Details: flower stems

SMILES: CBr [Methyl Bromide]
- yield increase (%), disinfestation (pre-plant soil disinfestation alone, compared to non-disinfested control): 24.0%
- yield increase (%), disinfestation + urea-phosphite (pre-plant soil disinfestation followed by post-plant UP 0.1%): 52.0%

From US20100291230A1 (priority 2006, published 2010)
